This is an account of results in article PMC10882002, “Design of target specific peptide inhibitors using generative deep learning and molecular dynamics simulations” (Nature Communications, 2024).

Amino acid sequences for entries named in this document (tags omitted).
UniProt P35222, whole entry: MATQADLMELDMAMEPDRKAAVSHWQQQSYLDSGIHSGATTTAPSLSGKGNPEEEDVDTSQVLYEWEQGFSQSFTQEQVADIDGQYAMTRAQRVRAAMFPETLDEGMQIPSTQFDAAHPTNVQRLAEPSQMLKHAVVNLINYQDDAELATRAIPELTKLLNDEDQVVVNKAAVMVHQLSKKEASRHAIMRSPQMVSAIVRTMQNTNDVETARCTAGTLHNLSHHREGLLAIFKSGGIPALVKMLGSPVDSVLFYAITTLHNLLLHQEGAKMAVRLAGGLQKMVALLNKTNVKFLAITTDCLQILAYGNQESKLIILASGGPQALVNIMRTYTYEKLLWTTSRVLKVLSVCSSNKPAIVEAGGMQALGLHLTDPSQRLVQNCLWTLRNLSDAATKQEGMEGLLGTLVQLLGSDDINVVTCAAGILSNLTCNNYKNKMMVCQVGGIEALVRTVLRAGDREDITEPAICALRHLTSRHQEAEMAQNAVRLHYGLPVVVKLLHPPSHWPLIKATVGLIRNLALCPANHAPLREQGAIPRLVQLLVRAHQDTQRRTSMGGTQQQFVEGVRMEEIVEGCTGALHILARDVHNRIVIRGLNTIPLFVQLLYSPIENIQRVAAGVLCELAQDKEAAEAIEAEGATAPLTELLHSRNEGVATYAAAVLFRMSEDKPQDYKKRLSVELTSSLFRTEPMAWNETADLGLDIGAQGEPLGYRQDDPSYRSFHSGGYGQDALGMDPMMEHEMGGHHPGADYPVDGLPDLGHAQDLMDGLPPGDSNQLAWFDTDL

The target in the test is GST-β-catenin (Homo sapiens, UniProt P35222). The experiment in a line: Competitive fluorescence polarization (FP)-based binding assay against β-catenin. The arrangement: Expression and purification of GST-β-catenin has been reported previously; made in house. Background: Polarisation of emitted light reports the rotation of a fluorescent probe.

The structures appear in SMILES notation.

The IC50 is the concentration needed to halve the response being measured. In turn, `CC[C@H](C)[C@@H]1NC(=O)[C@@H](NC(=O)[C@H](CCC(=O)O)NC(=O)[C@@H]2CCCN2C(=O)[C@H](Cc2ccc(O)cc2)NC(C)=O)CC(=O)NCCCC[C@@H](C(=O)N[C@@H](Cc2c[nH]cn2)C(=O)N[C@@H](CC(C)C)C(=O)N[C@@H](CCC(N)=O)C(=O)N[C@@H](CCCNC(=N)N)C(=O)N[C@H](C(=O)N[C@@H](Cc2c[nH]c3ccccc23)C(=O)N[C@@H](Cc2c[nH]c3ccccc23)C(=O)N[C@@H](Cc2ccccc2)C(=O)N[C@H](C(=O)N[C@@H](CC(=O)O)C(=O)N[C@@H](CC(=O)O)C(=O)N[C@@H](Cc2c[nH]cn2)C(=O)N[C@@H](Cc2c[nH]c3ccccc23)C(N)=O)[C@@H](C)O)C(C)C)NC(=O)[C@H](CC(=O)O)NC(=O)[C@H](CC(C)C)NC1=O` [CAL-2] yielded an IC50 of 10 ± 6 nM.
The figure for `CC[C@H](C)[C@H](NC(=O)[C@H](CO)NC(=O)[C@H](Cc1ccccc1)NC(=O)[C@H](Cc1ccc(O)cc1)NC(=O)[C@H](Cc1ccc(O)cc1)NC(=O)[C@H](CC(C)C)NC(=O)[C@@H](NC(=O)[C@@H](NC(=O)[C@H](CCCNC(=N)N)NC(=O)[C@H](CCC(N)=O)NC(=O)[C@H](CC(C)C)NC(=O)[C@H](Cc1c[nH]cn1)NC(=O)[C@@H]1CCCCNC(=O)C[C@H](NC(=O)[C@H](CCC(=O)O)NC(=O)[C@@H]2CCCN2C(=O)[C@H](Cc2ccc(O)cc2)NC(C)=O)C(=O)N[C@@H]([C@@H](C)CC)C(=O)N[C@@H](CC(C)C)C(=O)N[C@@H](CC(=O)O)C(=O)N1)C(C)C)[C@@H](C)CC)C(=O)N[C@@H](CCC(=O)O)C(N)=O` [CAL-9] is 300 ± 37 nM.
The result for `CC[C@H](C)[C@@H]1NC(=O)[C@@H](NC(=O)[C@H](CCC(=O)O)NC(=O)[C@@H]2CCCN2C(=O)[C@H](Cc2ccc(O)cc2)NC(C)=O)CC(=O)NCCCC[C@@H](C(=O)N[C@@H](Cc2c[nH]cn2)C(=O)N[C@@H](CC(C)C)C(=O)N[C@@H](CCC(N)=O)C(=O)N[C@@H](CCCNC(=N)N)C(=O)N[C@H](C(=O)N[C@H](C(=O)N[C@@H](CC(C)C)C(=O)N[C@@H](Cc2ccccc2)C(=O)N[C@@H](Cc2ccccc2)C(=O)N[C@@H](CS)C(N)=O)[C@@H](C)CC)C(C)C)NC(=O)[C@H](CC(=O)O)NC(=O)[C@H](CC(C)C)NC1=O` [CAL-10] reads 200 ± 64 nM.
